Measured values as given in US20210292438A1, “CONDITIONAL INTERNALIZATION OF PEGYLATED AGENTS BY PRETARGETING BI-SPECIFIC PEG-BINDING ANTIBODIES FOR DIAGNOSIS AND THERAPY” (ACADEMIA SINICA, priority 2017, published 2021).

Tested on: EGF-induced phosphorylation of EGFR and Erk in A431 cells
Assay: EGFR signaling, western blot of phospho-EGFR and phospho-ERK
Type: cell-based
Conditions: 50 nM, 5 nM EGF
Procedure: To investigate whether PEG engager^EGFR can inhibit EGFR signaling, EGFR-positive A431 cells were untreated or stimulated with 5 nM EGF and then co-incubated with PEG engagers or control antibodies. Phosphorylation of EGFR and Erk were detected by western blotting using anti-phospho EGFR or anti-phospho ERK antibodies. Total EGFR and tubulin served as loading controls.

Substance	inhibition of EGF-induced phosphorylation of EGFR and Erk
Herceptin: negative control antibody, anti-HER2 IgG	did not inhibit
Erbitux: monoclonal anti-EGFR IgG	inhibited
